Protein sequences, listed by entry. Tags and fused reporters are not part of them. Residues count along the entry.
UniProt P37023, 22-503: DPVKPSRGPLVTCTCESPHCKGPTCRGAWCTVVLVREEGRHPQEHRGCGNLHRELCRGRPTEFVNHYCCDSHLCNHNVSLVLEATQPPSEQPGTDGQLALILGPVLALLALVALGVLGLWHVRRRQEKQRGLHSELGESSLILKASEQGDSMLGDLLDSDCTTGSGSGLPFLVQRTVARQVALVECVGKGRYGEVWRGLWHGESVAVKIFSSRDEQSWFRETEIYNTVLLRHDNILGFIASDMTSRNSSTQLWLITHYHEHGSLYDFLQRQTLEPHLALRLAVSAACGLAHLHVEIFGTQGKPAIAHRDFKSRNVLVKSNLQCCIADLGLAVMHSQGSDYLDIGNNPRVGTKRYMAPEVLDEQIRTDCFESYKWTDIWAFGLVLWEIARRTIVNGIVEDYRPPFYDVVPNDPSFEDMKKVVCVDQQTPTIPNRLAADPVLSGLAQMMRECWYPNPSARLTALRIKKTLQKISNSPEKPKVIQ

According to patent US20260217660A1, “INHIBITORS OF ACTIVIN RECEPTOR TYPE I (ACVRI) AND ACTIVIN RECEPTOR LIKE TYPE I (ACVRLI), AND METHODS USING SAME” (Baylor College of Medicine, priority 2023, published 2026):

Columns and labels:
ACVR1 = target: T1, ACVR1 (Homo sapiens, UniProt Q04771); experiment: ThermoFisher (Lantha) kinase assay, inhibition of ACVR1; assay type: biochemical; settings: in vitro
T1 construct: purchased ThermoFisher
T1 sequence (Q04771 21-509): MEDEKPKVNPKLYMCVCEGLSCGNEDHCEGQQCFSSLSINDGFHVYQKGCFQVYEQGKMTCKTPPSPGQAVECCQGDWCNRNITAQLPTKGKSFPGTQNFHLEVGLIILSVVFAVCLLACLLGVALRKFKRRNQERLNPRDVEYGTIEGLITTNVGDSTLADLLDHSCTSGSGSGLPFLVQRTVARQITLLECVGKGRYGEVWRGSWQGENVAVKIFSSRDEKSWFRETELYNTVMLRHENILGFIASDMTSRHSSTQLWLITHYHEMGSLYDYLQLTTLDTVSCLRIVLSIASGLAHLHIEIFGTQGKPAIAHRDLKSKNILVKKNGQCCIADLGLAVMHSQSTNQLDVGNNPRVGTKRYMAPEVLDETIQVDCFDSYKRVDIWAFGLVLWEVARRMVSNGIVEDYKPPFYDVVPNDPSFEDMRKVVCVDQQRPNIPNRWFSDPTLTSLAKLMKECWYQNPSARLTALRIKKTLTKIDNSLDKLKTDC

ACVRL1 [1] = target: T2, ACVRL1 (Homo sapiens, UniProt P37023); experiment: ThermoFisher (Lantha) kinase assay, inhibition of ACVRL1; assay type: biochemical; parameters: purchased ThermoFisher; settings: in vitro, NA = not active at 1 μM
ACVRL1 [2] = target: T2, ACVRL1; experiment: Promega NanoBRET live-cell target engagement, ACVRL1; settings: NanoBRET ACVRL1 IC50 (μM), in cellulo; NI = No inhibition at 40 μM

Row | SMILES | pIC50 (ACVR1) | pIC50 (ACVRL1 [1]) | IC50 (ACVRL1 [2])
1 | CNC(=O)[C@H]1C[C@H](n2c(-c3cc(OC)ccc3OC)nc3ccc(C(=O)NCCCN4CCN(c5cccc(C)c5C)CC4)cc32)C1 [CDD-2420, 2-(2,5-dimethoxyphenyl)-N-(3-(4-(2,3-dimethylphenyl)piperazin-1-yl)propyl)-1-((1r,3r)-3-(methylcarbamoyl)cyclobutyl)-1H-benzo[d]imidazole-6-carboxamide] | 8.31 | 7.62 | –
2 | CNC(=O)[C@H]1C[C@H](n2c(-c3ccc(OC)c(OC)c3)nc3ccc(C(=O)NCCCN4CCN(c5cccc(C)c5C)CC4)cc32)C1 [CDD-2421, 2-(3,4-dimethoxyphenyl)-N-(3-(4-(2,3-dimethylphenyl)piperazin-1-yl)propyl)-1-((1r,3r)-3-(methylcarbamoyl)cyclobutyl)-1H-benzo[d]imidazole-6-carboxamide] | 8.10 | 7.11 | 38 µM
3 | CNC(=O)[C@H]1C[C@H](n2c(-c3cc(OC)c(OC)c(OC)c3)nc3ccc(C(=O)NCCCN4CCN(C)CC4)cc32)C1 [CDD-2280, 1-((1r,3r)-3-(methylcarbamoyl)cyclobutyl)-N-(3-(4-methylpiperazin-1-yl)propyl)-2-(3,4,5-trimethoxyphenyl)-1H-benzo[d]imidazole-6-carboxamide] | 7.64 | 7.51 | > 40 µM
4 | CNC(=O)[C@H]1C[C@H](n2c(-c3ccc(C(N)=O)cc3)nc3ccc(C(=O)NCCCN4CCN(c5ccccc5)CC4)cc32)C1 [CDD-2339, 2-(4-carbamoylphenyl)-1-((1r,3r)-3-(methylcarbamoyl)cyclobutyl)-N-(3-(4-phenylpiperazin-1-yl)propyl)-1H-benzo[d]imidazole-6-carboxamide] | 7.08 | 6.08 | –
5 | CN(C)CCCNC(=O)c1ccc2nc(-c3c[nH]c4ncccc34)n(C3CCC3)c2c1 [CDD-2625, 1-cyclobutyl-N-(3-(dimethylamino)propyl)-2-(1H-pyrrolo[2,3-b]pyridin-3-yl)-1H-benzo[d]imidazole-6-carboxamide] | 7.79 | 7.70 | –
6 | COc1cc(-c2nc3ccc(C(=O)NCCN4CCN(c5ccccc5)CC4)cc3n2C2CCC2)cc(OC)c1OC [CDD-2786, 1-cyclobutyl-N-(2-(4-phenylpiperazin-1-yl)ethyl)-2-(3,4,5-trimethoxyphenyl)-1H-benzo[d]imidazole-6-carboxamide] | 7.65 | 7.73 | –
7 | COc1cc(-c2nc3ccc(C(=O)NCCCN(C)C)cc3n2C2CCC2)cc(OC)c1OC [CDD-2789, 1-cyclobutyl-N-(3-(dimethylamino)propyl)-2-(3,4,5-trimethoxyphenyl)-1H-benzo[d]imidazole-6-carboxamide] | 8.19 | – | –
8 | CNC(=O)[C@H]1C[C@H](n2c(-c3ccccc3)nc3ccc(C(=O)NCCCN4CCN(c5ccccc5)CC4)cc32)C1 [CDD-2317, 1-((1r,3r)-3-(methylcarbamoyl)cyclobutyl)-2-phenyl-N-(3-(4-phenylpiperazin-1-yl)propyl)-1H-benzo[d]imidazole-6-carboxamide] | 6.84 | 5.69 | –
9 | CNC(=O)[C@H]1C[C@H](n2c(-c3cc(OC)c(OC)c(OC)c3)nc3ccc(C(=O)N4CCN(c5ccccc5)CC4)cc32)C1 [CDD-2279, (1r,3r)-N-methyl-3-(6-(4-phenylpiperazine-1-carbonyl)-2-(3,4,5-trimethoxyphenyl)-1H-benzo[d]imidazol-1-yl)cyclobutane-1-carboxamide] | 5.70 | 5.90 | –
10 | CNC(=O)c1ccc2nc(-c3cc(OC)c(OC)c(OC)c3)n([C@H]3CC[C@H](C(=O)NC)C3)c2c1 [CDD-2234, N-methyl-1-((1S,3S)-3-(methylcarbamoyl)cyclopentyl)-2-(3,4,5-trimethoxyphenyl)-1H-benzo[d]imidazole-6-carboxamide] | 7.10 | 7.15 | –
11 | CNC(=O)[C@H]1C[C@H](n2c(-c3cc(OC)cc(OC)c3)nc3ccc(C(=O)NCCCN4CCN(c5ccccc5)CC4)cc32)C1 [CDD-2314, 2-(3,5-dimethoxyphenyl)-1-((1r,3r)-3-(methylcarbamoyl)cyclobutyl)-N-(3-(4-phenylpiperazin-1-yl)propyl)-1H-benzo[d]imidazole-6-carboxamide] | 8.14 | 7.49 | –
12 | CN(C)CCCNC(=O)c1ccc2nc(-c3cncc4ccccc34)n(C3CCC3)c2c1 [CDD-2623, 1-cyclobutyl-N-(3-(dimethylamino)propyl)-2-(isoquinolin-4-yl)-1H-benzo[d]imidazole-6-carboxamide] | 5.73 | – | –
13 | COc1cc(-c2nc3ccc(C(=O)NCCCO)cc3n2C2CCC2)cc(OC)c1OC [CDD-2465, 1-cyclobutyl-N-(3-hydroxypropyl)-2-(3,4,5-trimethoxyphenyl)-1H-benzo[d]imidazole-6-carboxamide] | 7.36 | 7.38 | –

Continued by rising pIC50 (ACVR1), values first:

Row | pIC50 (ACVR1) | pIC50 (ACVRL1 [1]) | IC50 (ACVRL1 [2]) | SMILES
14 | 5.42 | – | – | CN(C)CCCNC(=O)c1ccc2nc(-c3cccc(-c4ccccc4)c3)n(C3CCC3)c2c1 [CDD-2621, 2-([1,1′-biphenyl]-3-yl)-1-cyclobutyl-N-(3-(dimethylamino)propyl)-1H-benzo[d]imidazole-6-carboxamide]
15 | 5.73 | – | – | COc1ccc(-c2cccc(-c3nc4ccc(C(=O)NCCCN(C)C)cc4n3C3CCC3)n2)cc1 [CDD-2620, 1-cyclobutyl-N-(3-(dimethylamino)propyl)-2-(6-(4-methoxyphenyl)pyridin-2-yl)-1H-benzo[d]imidazole-6-carboxamide]
16 | 6.14 | 5.67 | – | CN(C)CCCNC(=O)c1ccc2nc(-c3cc(F)cc(F)c3)n(C3CCC3)c2c1 [CDD-2618, 1-cyclobutyl-2-(3,5-difluorophenyl)-N-(3-(dimethylamino)propyl)-1H-benzo[d]imidazole-6-carboxamide]
17 | 6.32 | 5.86 | – | CN(C)CCCNC(=O)c1ccc2nc(-c3ccncc3)n(C3CCC3)c2c1 [CDD-2619, 1-cyclobutyl-N-(3-(dimethylamino)propyl)-2-(pyridin-4-yl)-1H-benzo[d]imidazole-6-carboxamide]
18 | 6.63 | 6.14 | – | CN(C)CCCNC(=O)c1ccc2nc(-c3ccnc4ccccc34)n(C3CCC3)c2c1 [CDD-2624, 1-cyclobutyl-N-(3-(dimethylamino)propyl)-2-(quinolin-4-yl)-1H-benzo[d]imidazole-6-carboxamide]
19 | 6.69 | 6.88 | – | COc1cc(-c2nc3ccc(C(=O)NCCC(=O)O)cc3n2C2CCC2)cc(OC)c1OC [CDD-2464, 3-(1-cyclobutyl-2-(3,4,5-trimethoxyphenyl)-1H-benzo[d]imidazole-6-carboxamido)propanoic acid]
20 | 6.89 | 6.09 | – | CNC(=O)CCCn1c(-c2cc(OC)c(OC)c(OC)c2)nc2ccc(C(=O)NCCCN3CCN(c4ccccc4)CC3)cc21 [CDD-2316, 1-(4-(methylamino)-4-oxobutyl)-N-(3-(4-phenylpiperazin-1-yl)propyl)-2-(3,4,5-trimethoxyphenyl)-1H-benzo[d]imidazole-6-carboxamide]
21 | 7.61 | 7.88 | – | COc1cc(-c2nc3ccc(C(=O)NC4CC(N5CCN(c6ccccc6)CC5)C4)cc3n2C2CCC2)cc(OC)c1OC (centres unmarked) [CDD-2788, 1-cyclobutyl-N-(3-(4-phenylpiperazin-1-yl)cyclobutyl)-2-(3,4,5-trimethoxyphenyl)-1H-benzo[d]imidazole-6-carboxamide]
22 | 7.76 | 6.91 | 34 µM | COc1cc(OC)cc(-c2nc3ccc(C(=O)NCCCN4CCN(c5cccc(C)c5C)CC4)cc3n2C2CCC2)c1 [CDD-2469, 1-cyclobutyl-2-(3,5-dimethoxyphenyl)-N-(3-(4-(2,3-dimethylphenyl)piperazin-1-yl)propyl)-1H-benzo[d]imidazole-6-carboxamide]
23 | 7.89 | 6.93 | – | COc1cc(-c2nc3ccc(C(=O)NCCC(=O)N4CCN(c5cccc(C)c5C)CC4)cc3n2C2CCC2)cc(OC)c1OC [CDD-2467, 1-cyclobutyl-N-(3-(4-(2,3-dimethylphenyl)piperazin-1-yl)-3-oxopropyl)-2-(3,4,5-trimethoxyphenyl)-1H-benzo[d]imidazole-6-carboxamide]
24 | 8.29 | 7.76 | – | CNC(=O)[C@H]1C[C@H](n2c(-c3cc(OC)c(OC)c(OC)c3)nc3ccc(C(=O)NCCCN4CCN(c5ccccc5)CC4)cc32)C1 [CDD-2235, 1-((1r,3r)-3-(methylcarbamoyl)cyclobutyl)-N-(3-(4-phenylpiperazin-1-yl)propyl)-2-(3,4,5-trimethoxyphenyl)-1H-benzo[d]imidazole-6-carboxamide]
25 | 8.39 | 7.78 | 29 µM | COc1cc(-c2nc3ccc(C(=O)NCCCN4CCN(C5CCCCC5)CC4)cc3n2C2CCC2)cc(OC)c1OC [CDD-2792, 1-cyclobutyl-N-(3-(4-cyclohexylpiperazin-1-yl)propyl)-2-(3,4,5-trimethoxyphenyl)-1H-benzo[d]imidazole-6-carboxamide]
26 | 8.42 | 8.01 | 36.7 µM | COc1cc(-c2nc3ccc(C(=O)NCCCN4CCN(c5ccccn5)CC4)cc3n2C2CCC2)cc(OC)c1OC [CDD-2787, 1-cyclobutyl-N-(3-(4-(pyridin-2-yl)piperazin-1-yl)propyl)-2-(3,4,5-trimethoxyphenyl)-1H-benzo[d]imidazole-6-carboxamide]

pIC50: −log10 of the molar value.
